{
  "source": "patent US12005056B2",
  "about": "“Centrally-active ghrelin agonist and medical uses thereof” (Helsinn Healthcare SA, priority 2018, dated 2024)",
  "tested_on": "oxaliplatin-treated Balb/C mice",
  "conditions": "oxaliplatin 6 mg/kg i.p. twice weekly for 4 weeks",
  "data": [
    {"smiles": "O=C1[O][Pt]2([NH][C@@H]3CCCC[C@H]3[NH]2)[O]C1=O", "note": "[Oxaliplatin, reference compound]", "values": [
      {"measurement": "decrease in digital NCV vs. vehicle-treated mice", "result": "10.6±1.6", "unit": "%"}
    ]}
  ]
}
